Experimental data from ChEMBL document CHEMBL1140497, “The molecular pruning of a phosphoramidate peptidomimetic inhibitor of prostate-specific membrane antigen” (Bioorg Med Chem, 2007).

Chains of the proteins cited; added tags and fusions are not shown.
UniProt Q04609, whole entry, looked up: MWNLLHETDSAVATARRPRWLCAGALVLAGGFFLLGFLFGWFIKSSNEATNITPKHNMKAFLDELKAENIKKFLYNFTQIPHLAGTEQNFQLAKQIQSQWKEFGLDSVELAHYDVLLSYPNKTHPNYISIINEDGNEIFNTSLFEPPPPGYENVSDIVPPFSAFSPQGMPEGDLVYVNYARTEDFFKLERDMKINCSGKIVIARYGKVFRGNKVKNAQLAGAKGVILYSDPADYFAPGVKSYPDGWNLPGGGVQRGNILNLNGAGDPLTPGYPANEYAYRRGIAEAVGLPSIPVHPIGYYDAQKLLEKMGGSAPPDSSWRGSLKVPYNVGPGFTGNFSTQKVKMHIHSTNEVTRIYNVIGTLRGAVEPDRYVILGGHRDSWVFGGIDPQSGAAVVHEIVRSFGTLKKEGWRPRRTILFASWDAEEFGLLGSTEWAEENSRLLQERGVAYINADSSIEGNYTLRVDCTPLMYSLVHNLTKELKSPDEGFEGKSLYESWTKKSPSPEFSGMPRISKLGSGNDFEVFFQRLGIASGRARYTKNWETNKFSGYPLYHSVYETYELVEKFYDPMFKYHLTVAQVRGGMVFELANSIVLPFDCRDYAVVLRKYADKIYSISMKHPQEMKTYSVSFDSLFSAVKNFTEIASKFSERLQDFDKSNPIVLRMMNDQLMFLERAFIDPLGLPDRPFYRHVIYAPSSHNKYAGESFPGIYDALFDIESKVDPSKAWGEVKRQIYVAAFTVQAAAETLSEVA

Target: Glutamate carboxypeptidase 2 (Homo sapiens, UniProt Q04609)
Experiment: Inhibition of PSMA
Outline: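 Purified PSMA in 50 mM Tris pH 7.4, diluted to give 15–20% substrate conversion without inhibitor. Substrate PAB-Glu-γ-Glu at 10 μM final. Five serial inhibitor dilutions spanning 10–90% inhibition. 15 min at 37 °C with shaking. Stopped with methanolic TFA, buffered with K2HPO4, centrifuged. Supernatant quantified by HPLC; IC50 calculated.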

With `O=C(O)CCOP(=O)(O)N[C@@H](CCC(=O)O)C(=O)O` as the molecule, how does the IC50 read?
Its IC50 is 4.1 µM.
